Patent publication US9440982B2 (Eolas Therapeutics, Inc., priority 2012, dated 2016)

Amino acid sequences for entries named in this document (tags omitted).
UniProt O43614, whole entry: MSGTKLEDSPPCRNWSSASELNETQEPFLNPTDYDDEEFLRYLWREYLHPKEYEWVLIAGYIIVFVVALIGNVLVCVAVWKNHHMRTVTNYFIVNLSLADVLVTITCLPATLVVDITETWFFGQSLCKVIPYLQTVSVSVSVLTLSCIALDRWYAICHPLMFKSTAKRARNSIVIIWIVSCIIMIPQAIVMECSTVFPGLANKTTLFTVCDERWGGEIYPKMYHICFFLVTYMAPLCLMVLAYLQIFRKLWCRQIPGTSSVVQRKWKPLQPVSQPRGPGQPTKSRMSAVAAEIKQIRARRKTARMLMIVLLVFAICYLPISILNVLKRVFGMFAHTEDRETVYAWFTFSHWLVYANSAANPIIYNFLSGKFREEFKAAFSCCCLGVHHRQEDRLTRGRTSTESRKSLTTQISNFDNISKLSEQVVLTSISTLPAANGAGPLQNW

Target: T1, OX2 (Homo sapiens, UniProt O43614)
T1 construct: expressed in transfected cells; host or cells: CHO (CHO-OX2, kept under selection antibiotic)
Test: Orexin receptor cell-based functional assay, [Ca2+]i by FLIPR, CHO-OX2 cells
Conditions: CHO-OX2 cells, [Ca2+]i by FLIPR, antagonist dose-range 0.1 nM-10 μM, EC90 of OXA; read-out: OX2

| IC50 [µM] | Structure (SMILES) |
| --- | --- |
| > 5 | Cc1ccc(-c2cnn(C)c2)c(C(=O)N2CCC[C@@H](C)[C@H]2CNc2ncccc2C(F)(F)F)c1 [Example A93, ((2S,3R)-3-Methyl-2-(((3-(trifluoromethyl)pyridin-2-yl)amino)methyl)piperidin-1-yl)(5-methyl-2-(1-methyl-1H-pyrazol-4-yl)phenyl)methanone] |
| > 5 | Cc1ccc(-c2cccnn2)c(C(=O)N2CCC[C@@H](C)[C@H]2CNc2ncc(C(F)(F)F)cn2)c1 [Example A198, ((2S,3R)-3-Methyl-2-(((5-(trifluoromethyl)pyrimidin-2-yl)amino)methyl)piperidin-1-yl)(5-methyl-2-(pyridazin-3-yl)phenyl)methanone] |
| > 5 | Cc1nc(C(=O)N2CCC[C@@H](C)[C@H]2CNc2ccc(C(F)(F)F)cn2)c(-c2ccc(F)cc2)s1 [Example A85, (5-(4-Fluorophenyl)-2-methylthiazol-4-yl)((2S,3R)-3-methyl-2-(((5-(trifluoromethyl)pyridin-2-yl)amino)methyl)piperidin-1-yl)methanone] |
| 0.79 | Cc1ccc(-n2nccn2)c(C(=O)N2CCC[C@@H](C)[C@H]2CNc2ccc(C3(C#N)CC3)cn2)c1 [Example A140, 1-(6-((((2S,3R)-3-Methyl-1-(5-methyl-2-(2H-1,2,3-triazol-2-yl)benzoyl)piperidin-2-yl)methyl)amino)pyridin-3-yl)cyclopropanecarbonitrile] |
| 0.42 | Cc1ccc(-c2ccccn2)c(C(=O)N2CCC[C@@H](C)[C@H]2CNc2nc3cc(Cl)ccc3o2)c1 [Example A32, ((2S,3R)-2-(((5-Chlorobenzo[d]oxazol-2-yl)amino)methyl)-3-methylpiperidin-1-yl)(5-methyl-2-(pyridin-2-yl)phenyl)methanone] |
| > 5 | C[C@@H]1CCCN(C(=O)c2c(F)cccc2-c2ncccn2)[C@@H]1CNc1ccc(C(F)(F)F)cn1 [Example A241, (2-Fluoro-6-(pyrimidin-2-yl)phenyl)((2S,3R)-3-methyl-2-(((5-(trifluoromethyl)pyridin-2-yl)amino)methyl)piperidin-1-yl)methanone] |
| > 5 | Cc1ccc(-c2ncccn2)c(C(=O)N2CCC[C@@H](C)[C@H]2CNc2ccc(C(F)(F)F)nn2)n1 [Example A185, ((2S,3R)-3-Methyl-2-(((6-(trifluoromethyl)pyridazin-3-yl)amino)methyl)piperidin-1-yl)(6-methyl-3-(pyrimidin-2-yl)pyridin-2-yl)methanone] |
| > 5 | Cc1ccc(-c2ccccn2)c(C(=O)N2CCC[C@@H](C)[C@H]2CNc2ccc(Cl)cn2)c1 [Example A117, ((2S,3R)-2-(((5-chloropyridin-2-yl)amino)methyl)-3-methylpiperidin-1-yl)(5-methyl-2-(pyridin-2-yl)phenyl)methanone] |
| > 5 | Cc1ccc(-n2nccn2)c(C(=O)N2CCC[C@@H](C)[C@H]2CNc2ccc(C#N)cn2)n1 [Example A189, 6-((((2S,3R)-3-Methyl-1-(6-methyl-3-(2H-1,2,3-triazol-2-yl)picolinoyl)piperidin-2-yl)methyl)amino)nicotinonitrile] |
| > 5 | Cc1ccc(-n2nccn2)c(C(=O)N2CCC[C@@H](C)[C@H]2CNc2ncc(F)cc2F)c1 [Example A172, ((2S,3R)-2-(((3,5-Difluoropyridin-2-yl)amino)methyl)-3-methylpiperidin-1-yl)(5-methyl-2-(2H-1,2,3-triazol-2-yl)phenyl)methanone] |
| > 5 | Cc1ccc(-n2nccn2)c(C(=O)N2CCC[C@@H](C)[C@H]2CNc2ncc(C(F)(F)F)cn2)n1 [Example A175, ((2S,3R)-3-Methyl-2-(((5-(trifluoromethyl)pyrimidin-2-yl)amino)methyl)piperidin-1-yl)(6-methyl-3-(2H-1,2,3-triazol-2-yl)pyridin-2-yl)methanone] |
| > 5 | C[C@@H]1CCCN(C(=O)c2cccc(F)c2-n2nccn2)[C@@H]1CNc1ncc(Cl)cn1 [Example A255, ((2S,3R)-2-(((5-Chloropyrimidin-2-yl)amino)methyl)-3-methylpiperidin-1-yl)(3-fluoro-2-(2H-1,2,3-triazol-2-yl)phenyl)methanone] |
| > 5 | Cc1ccc(-c2ncccn2)c(C(=O)N2CCC[C@@H](C)[C@H]2CNc2ncc(Cl)cc2F)c1 [Example A181, ((2S,3R)-2-(((5-Chloro-3-fluoropyridin-2-yl)amino)methyl)-3-methylpiperidin-1-yl)(5-methyl-2-(pyrimidin-2-yl)phenyl)methanone] |
| > 4 | Cc1ccc(-c2cnn(C)c2)c(C(=O)N2CCC[C@@H](C)[C@H]2CNc2nc3ccc(Cl)cc3o2)c1 [Example A10, ((2S,3R)-2-(((6-Chlorobenzo[d]oxazol-2-yl)amino)methyl)-3-methylpiperidin-1-yl)(5-methyl-2-(1-methyl-1H-pyrazol-4-yl)phenyl)methanone] |
| > 5 | C[C@@H]1CCCN(C(=O)c2ccccc2-n2nccn2)[C@@H]1CNc1nc2ccccc2o1 [Example A218, (2-(2H-1,2,3-Triazol-2-yl)phenyl)((2S,3R)-2-((benzo[d]oxazol-2-ylamino)methyl)-3-methylpiperidin-1-yl)methanone] |
| > 5 | C[C@@H]1CCCN(C(=O)c2cccc(F)c2-c2ncccn2)[C@@H]1CNc1ccc(Cl)cn1 [Example A232, ((2S,3R)-2-(((5-chloropyridin-2-yl)amino)methyl)-3-methylpiperidin-1-yl)(3-fluoro-2-(pyrimidin-2-yl)phenyl)methanone] |
| > 5 | Cc1ccc(-n2ccc(C)n2)c(C(=O)N2CCC[C@@H](C)[C@H]2CNc2ccc(Cl)cn2)c1 [Example A120, ((2S,3R)-2-(((5-Chloropyridin-2-yl)amino)methyl)-3-methylpiperidin-1-yl)(5-methyl-2-(3-methyl-1H-pyrazol-1-yl)phenyl)methanone] |

Same assay, conditions: Table 2; CHO-OX2 cells, EC90 of OXA; read-out: IC50 Bioactivity OX2

| IC50 [µM] | Structure (SMILES) |
| --- | --- |
| > 10 | Cc1nc(C(=O)N2C[C@H]3CCC[C@H]3C2COc2ccc(C(F)(F)F)cn2)c(-c2ccc(F)cc2)s1 (mixture of isomers) [Example 101, (5-(4-Fluorophenyl)-2-methylthiazol-4-yl)(1-(((5-(trifluoromethyl)pyridin-2-yl)oxy)methyl)hexahydrocyclopenta[c]pyrrol-2(1H)-yl)methanone] |
| > 10 | CCc1cnc(NC[C@@H]2[C@H](C)CCCN2C(=O)c2nc(C)sc2-c2ccc(F)cc2)nc1 (racemic) [Example 16, rac-cis-(2-(((5-Ethylpyrimidin-2-yl)amino)methyl)-3-methylpiperidin-1-yl)(5-(4-fluorophenyl)-2-methylthiazol-4-yl)methanone] |
| > 10 | Cc1ccc(-n2nccn2)c(C(=O)N2CCC[C@@H](C)[C@H]2CNc2ccc(C(F)(F)F)cn2)c1 (racemic) [Example 114, rac-cis-(3-Methyl-2-(((5-(trifluoromethyl)pyridin-2-yl)amino)methyl)piperidin-1-yl)(5-methyl-2-(2H-1,2,3-triazol-2-yl)phenyl)methanone] |
| > 10 | Cc1ccc(-n2ccnn2)c(C(=O)N2CCC[C@@H](C)[C@H]2CNc2ccc(C(F)(F)F)cn2)c1 (racemic) [Example 115, rac-cis-(3-Methyl-2-(((5-(trifluoromethyl)pyridin-2-yl)amino)methyl)piperidin-1-yl)(5-methyl-2-(1H-1,2,3-triazol-1-yl)phenyl)methanone] |

Same assay, conditions: Table 6; racemate vs enantiomers; read-out: OX2 IC50

| IC50 [µM] | Structure (SMILES) |
| --- | --- |
| > 5 | Cc1nc(C(=O)N2CCC[C@@H](C)[C@H]2CNc2ccc(C(F)(F)F)cn2)c(-c2ccc(F)cc2)s1 [Example A85, (5-(4-Fluorophenyl)-2-methylthiazol-4-yl)((2S,3R)-3-methyl-2-(((5-(trifluoromethyl)pyridin-2-yl)amino)methyl)piperidin-1-yl)methanone] |
